## Yeast mating assay 1: variants of the scFv Ab-14

The target is the same throughout: PDVDLGDISGINAS, from the HR2 region of SARS-CoV-2 spike.

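Library AAYL50 holds single substitutions and randomly drawn double and triple substitutions in the CDRs. The assay is AlphaSeq: two haploid yeast populations carry antibody and antigen on their surface. Binding brings cells together so that they mate, and sequencing counts the barcode pairs among the diploids. A regression on co-assayed BCL2-family reference pairs converts the normalised counts of each replicate to an apparent Kd. There are three technical replicates.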

Each scFv is VH, three GGGGS repeats, VL, as in the parent Ab-14, and differs from it in the CDRs of the light chain only.
VH: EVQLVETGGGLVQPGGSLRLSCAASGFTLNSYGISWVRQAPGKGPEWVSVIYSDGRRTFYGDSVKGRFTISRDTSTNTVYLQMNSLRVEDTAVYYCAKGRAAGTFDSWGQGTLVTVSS
VL: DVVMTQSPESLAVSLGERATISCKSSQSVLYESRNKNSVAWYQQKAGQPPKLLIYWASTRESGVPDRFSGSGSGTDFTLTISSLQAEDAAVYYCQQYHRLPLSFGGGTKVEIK

Each variant is given by its three light chain CDRs, as the data file delimits them; those of the parent are KSSQSVLYESRNKNSVA, WASTRES, QQYHRLPLS. Numbers give log10(Kd / nM), so 0 is 1 nM and 3 is 1 µM. Smaller is tighter. "nd" marks a missing value. The strain was present, yet no cells mated with the target were sequenced in that replicate, which points to weak or no binding. As a blank, each scFv also met three strains without target: over library AAYL50, 18% of these pairings were detected, typically at 4.19 and seldom below 2.99. For each scFv, signals with the empty controls are counted beside the result, with their mean in brackets. For reference, the parent read 0.65 as the reference entry and 1.68 as a member of this library.

CDR-L1,CDR-L2,CDR-L3,"log10 Kd, replicates",signal with controls
LSSQSVLYESRNKNSVA,WASTRES,QQRHRCPLS,1.27 1.34 1.39,0/9
KSSQSVLYESRNKNLVA,WWSTRES,QQYHRLPLS,nd nd nd,3/9 (3.28)
KSSFSVLYESWNKNSVA,WASTRES,QQYHWLPLS,2.24 2.04 2.69,4/9 (4.66)
KSSQSVNYESVNKNSVA,WASTRES,QQYTRLPLS,1.29 1.14 1.36,0/9
KSSQSVLYESRNKNSVA,WESTRES,QQYPRLPCS,nd nd nd,0/9
KSSQSRLYESRNKNSVA,WASTREA,QQYVRLPLS,3.31 3.52 4.30,2/9 (4.50)
KSSLSVLYESRNKNSVA,WASTRES,QQYTNLPLS,1.62 1.86 2.13,1/9 (4.55)
KSSQSVLYESRNKNSVA,DASTRES,QLYMRLPLS,-0.38 -0.03 -0.30,7/9 (5.00)
KSSQSVLCMSRNKNSVA,WASTRES,QKYHRLPLS,2.12 2.16 2.31,0/9
KSSQSVLYESRNKQSVA,WASTRES,QQYHRLHPS,nd 5.13 nd,0/9
KSSQSVLYESYNGNSVA,WASTRES,QQAHRLPLS,nd nd nd,0/9
KSSQSVSYESRNKNSVA,WASTLES,QQYHRLPLS,1.60 1.51 1.66,1/9 (4.34)
KSSQTVAYESRNKNSVA,WASTRES,PQYHRLPLS,nd 3.13 nd,4/9 (4.33)
KSSQSVLYISRNKNSVA,WFQTRES,QQYHRLPLS,nd nd nd,2/9 (5.14)
KSSQSVLYESCNKNSVA,WASTRES,QQYHRLPTS,nd 3.76 nd,1/9 (3.53)
KSSQSVLYESRNKNSVA,WISTRES,PQYHRLPLS,4.83 4.25 nd,3/9 (4.01)
MRSQSVLYESRNKNSIA,WASTRES,QQYHRLPLS,2.62 3.09 2.05,0/9
KSSQSVLYESRVKNSKA,WASTRES,QQYHRLPTS,nd nd nd,3/9 (4.50)
KSSQFVLREKRNKNSVA,WASTRES,QQYHRLPLS,4.04 nd nd,2/9 (4.37)
KSMQSVLYESRNKNSVA,WASTLES,GQYHRLPLS,nd nd nd,1/9 (4.37)
KSSFSVLYESRNKNSVA,WASTRES,QTYHRLQLS,nd nd nd,0/9
KSSQSVLYESRNKNSVA,WASCAES,MQYHRLPLS,3.53 nd nd,1/9 (4.12)
KSSQSVVYEDRNKNSVA,WASTRNS,QQYHRLPLS,0.65 0.95 0.83,1/9 (2.13)
KSSQSVLYESRNKNSVA,WAFTRRS,QQYHRFPLS,nd nd nd,0/9
KSEQSVLYESRNKNSVA,WMSHRES,QQYHRLPLS,nd nd 3.19,1/9 (4.95)
GSSQSVLYESRNKNSTA,WASTRES,GQYHRLPLS,5.68 nd 6.49,6/9 (4.10)
KSSQSVLYESRNKNSVA,WASTRES,QAYHGLPYS,nd nd nd,1/9 (3.43)
KWSQSVLYESRNKNSSA,WPSTRES,QQYHRLPLS,nd nd nd,1/9 (3.31)
KSSQSSLYESRNKNSVA,WASVRES,QQYGRLPLS,0.93 0.78 0.72,0/9
KSSQSVLYESSNKNSVA,WASTRES,PQEHRLPLS,-0.05 0.24 0.12,0/9
KWSQSVLYESRMGNSVA,WASTRES,QQYHRLPLS,0.48 0.70 0.58,1/9 (5.59)
KSSKSVLYESRNKNSVI,WASTRES,QQYHRLKLS,3.51 nd nd,1/9 (3.36)
KSSQIVLYESDNKNSVA,WVSTRES,QQYHRLPLS,2.28 2.05 1.84,2/9 (3.88)
KSTQSVLYESRSKNSVA,WASTRES,QQYHRLPDS,1.61 1.77 1.54,2/9 (4.75)
KSSQSVLYESQNKNIVA,WASTRQS,QQYHRLPLS,nd nd nd,0/9
KSSQSVLYESRNKNSVA,WASTRES,VQYHRLPLI,nd nd nd,2/9 (4.86)
KSMQEVLYESRNKNSVA,WASTTES,QQYHRLPLS,nd nd nd,0/9
KSSQSVLYESRNVNSVA,WASTREA,QQYNRLPLS,0.91 0.77 0.38,0/9
KSSQSVLYESRNKVSVA,WASAREN,QQYHRLPLS,nd 4.33 nd,1/9 (3.20)
KHCPSVLYESRNKNSVA,WASTRES,QQYHRLPLS,1.94 1.85 2.14,2/9 (3.27)
KSSQSVLYESRNKNFVA,WASTWEG,QQYHRLPLS,nd nd nd,5/9 (4.37)
KSSQSVLYESRWKNSVA,WASTPES,QQYFRLPLS,nd nd nd,0/9
KSSQSVLYESRNKNSVA,WTSVRES,QQYHRLVLS,nd nd nd,1/9 (3.94)
KSSQSVLYESRNGNSSA,WASTREM,QQYHRLPLS,4.28 nd 3.08,1/9 (3.93)
KSSRSVFYESRNKNSVA,WASTRES,QQYQRLPLS,0.81 0.96 0.94,3/9 (3.63)
YFSQSVLYESRNKNSVA,WASTRES,QQYHRLPLH,2.25 1.53 2.24,0/9
KSSQHVLYESRNKNSVA,WCSTRES,QQYHRLYLS,6.45 4.67 4.67,4/9 (4.19)
KSSQSVLYESENKNSVR,WASTRES,QYYHRLPLS,nd 3.62 6.54,5/9 (4.94)
KSSQSVLYPSRNKDSVA,WASTRES,QQYARLPLS,1.27 1.26 1.31,2/9 (4.66)
KSSQSVLYESRNLNSVA,WASTRES,QQKHRLPLM,1.15 0.95 1.23,3/9 (3.91)

Excerpt, the first 8 entries:

CDR-L1,CDR-L2,CDR-L3,"log10 Kd, replicates",signal with controls
LSSQSVLYESRNKNSVA,WASTRES,QQRHRCPLS,1.27 1.34 1.39,0/9
KSSQSVLYESRNKNLVA,WWSTRES,QQYHRLPLS,nd nd nd,3/9 (3.28)
KSSFSVLYESWNKNSVA,WASTRES,QQYHWLPLS,2.24 2.04 2.69,4/9 (4.66)
KSSQSVNYESVNKNSVA,WASTRES,QQYTRLPLS,1.29 1.14 1.36,0/9
KSSQSVLYESRNKNSVA,WESTRES,QQYPRLPCS,nd nd nd,0/9
KSSQSRLYESRNKNSVA,WASTREA,QQYVRLPLS,3.31 3.52 4.30,2/9 (4.50)
KSSLSVLYESRNKNSVA,WASTRES,QQYTNLPLS,1.62 1.86 2.13,1/9 (4.55)
KSSQSVLYESRNKNSVA,DASTRES,QLYMRLPLS,-0.38 -0.03 -0.30,7/9 (5.00)

Data: MIT Lincoln Laboratory AlphaSeq set, Engelhart et al. 2022, doi:10.1038/s41597-022-01779-4, as distributed in FLAb.